Laboratory results as given in the supplement of paper PMC12317010.

Experiment: collision cross section in nitrogen (drift tube, single-field); higher = larger gas-phase ion size
Details: ion mode: Positive
[1] = ion type: [M+Na], ion source: ESI
[2] = ion source: ESI, ion type: [M]+ (permanent cation)
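Note: chemical standards at 10 µM analysed by drift tube IMS-QTOF MS in about 3.95 torr nitrogen, mean of duplicate injections differing ≤1%, mass error below 10 ppm.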

SMILES	collision cross section in nitrogen [1] [Å²]	collision cross section in nitrogen (ion source: APCI, ion type: [M]+ (permanent cation)) [Å²]	collision cross section in nitrogen [2] [Å²]	collision cross section in nitrogen (ion type: [M+H], ion source: APCI) [Å²]	collision cross section in nitrogen (ion type: [M+H], ion source: ESI) [Å²]
OCCOCCOCCOCCO [Tetraethylene glycol]	141.4				
CCC[N+](CCC)(CCC)CCC [Tetrapropylammonium bromide]		146	146.2		
CCC[N+](CCC)(CCC)CCC [Tetrapropylammonium hydroxide]			146.5		
CCOP(=S)(OCC)Oc1ncn(-c2ccccc2)n1 [Triazophos]	180.2			171.2	171.4
